The results in this text go back to patent US6413960B1, “Substituted pyrazolyl benzenesulfonamides for the treatment of asthma” (G.D. Searle & Co., priority 1993, dated 2002).

By UniProt entry, the sequences of proteins in these tests, tags left out. Residues count along the entry.
UniProt P23219, 24-599: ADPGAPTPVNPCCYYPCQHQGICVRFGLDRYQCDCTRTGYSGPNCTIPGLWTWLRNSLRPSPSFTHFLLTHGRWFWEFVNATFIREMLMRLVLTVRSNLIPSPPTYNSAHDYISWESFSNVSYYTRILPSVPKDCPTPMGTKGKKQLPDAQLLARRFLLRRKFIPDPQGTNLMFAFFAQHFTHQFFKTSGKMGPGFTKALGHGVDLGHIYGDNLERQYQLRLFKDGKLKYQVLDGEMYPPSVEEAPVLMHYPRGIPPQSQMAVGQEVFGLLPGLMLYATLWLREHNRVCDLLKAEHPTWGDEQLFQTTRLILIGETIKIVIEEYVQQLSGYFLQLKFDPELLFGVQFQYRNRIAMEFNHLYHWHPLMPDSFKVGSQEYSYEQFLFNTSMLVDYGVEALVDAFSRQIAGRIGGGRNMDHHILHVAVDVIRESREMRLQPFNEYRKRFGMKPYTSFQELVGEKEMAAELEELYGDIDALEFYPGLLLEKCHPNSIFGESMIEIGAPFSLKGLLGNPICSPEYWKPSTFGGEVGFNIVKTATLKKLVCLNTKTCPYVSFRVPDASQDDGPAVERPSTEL

This test has as its target Human COX I (Homo sapiens, UniProt P23219). As to the kind of experiment: Assay for COX I activity in vitro (PGE2 ELISA, recombinant enzyme). (An ELISA detects its analyte on a solid surface through an enzyme-linked reagent.)
`NS(=O)(=O)c1ccc(-n2nc(C(F)(F)F)c(CO)c2-c2ccccc2)cc1`: the IC50 (usually the concentration that gives 50% inhibition) is > 100 µM.

`COC(=O)c1cc(-c2ccc(Cl)cc2)n(-c2ccc(S(N)(=O)=O)cc2)n1` [Example 85, Methyl [1-(4-aminosulfonylphenyl)-5-(4-chlorophenyl)-1H-pyrazole-3-yl]carboxylate]: the IC50 was > 100 µM.

Consider `CN(C)C=NS(=O)(=O)c1ccc(-n2nc(C#N)c(Cl)c2-c2ccc(F)cc2)cc1` [Example 259], for which the concentration for half-maximal inhibition (IC50) was > 100 µM.

In the case of `COc1ccc(-c2cc(C(F)(F)F)nn2-c2ccc(S(N)(=O)=O)cc2)cc1CC1CC1`, the half-inhibitory concentration (IC50) is > 100 µM.

For the molecule `NS(=O)(=O)c1ccc(-n2nc(C(F)F)cc2C2CCCCC2)cc1` [Example 170, 4-[5-(1-Cyclohexyl)-3-(difluoromethyl)-1H-pyrazol-1-yl]benzenesulfonamide], the IC50 was > 100 µM.

For `NC(=O)c1cc(-c2ccc(Cl)cc2)n(-c2ccc(S(N)(=O)=O)cc2)n1`, the 50% inhibitory concentration (IC50) was > 100 µM.

With `CN(C)C=NS(=O)(=O)c1ccc(-n2nc(C#N)c(Br)c2-c2ccccc2)cc1` [Example 260, 4-[4-Bromo-3-cyano-5-phenyl-1H-pyrazol-1-yl]-N-[(dimethylamino)methylene]benzenesulfonamide], the half-inhibitory concentration (IC50) is > 100 µM.

Consider `CCCc1cc(-c2cc(C(F)(F)F)nn2-c2ccc(S(N)(=O)=O)cc2)ccc1OC`, for which the IC50 was > 100 µM.

On to `NS(=O)(=O)c1ccc(-n2nc(CCCO)cc2-c2ccccc2)cc1` [Example 172, 4-[5-Phenyl-3-(3-hydroxypropyl)-1H-pyrazol-1-yl]benzenesulfonamide], for which the half-maximal inhibitory concentration (IC50) was > 100 µM.

Take `NS(=O)(=O)c1ccc(-n2nc(C(F)(F)F)c(C3CC3)c2-c2ccccc2)cc1`: the IC50 is > 100 µM.

Take `CCOC(=O)c1cc(-c2ccc(Cl)cc2)n(-c2ccc(S(N)(=O)=O)cc2)n1` [Example 86, Ethyl [1-(4-aminosulfonylphenyl)-5-(4-chlorophenyl)-1H-pyrazole-3-yl]carboxylate]: the half-inhibitory concentration (IC50) was > 100 µM.

On to `NS(=O)(=O)c1ccc(-n2nc(CCCO)cc2-c2ccc(F)cc2)cc1` [Example 173, 4-[5-(4-Fluorophenyl)-3-(3-hydroxypropyl)-1H-pyrazol-1-yl]benzenesulfonamide], for which the concentration for half-maximal inhibition (IC50) was > 100 µM.

As to `COc1c(Cl)cc(-c2cc(C(F)(F)F)nn2-c2ccc(S(N)(=O)=O)cc2)cc1Cl`, the half-inhibitory concentration (IC50) was > 100 µM.

For the molecule `NS(=O)(=O)c1ccc(-n2nc(C(F)(F)C(F)(F)C(F)(F)F)cc2-c2ccc(Cl)cc2)cc1`, the IC50 was > 100 µM.

For `CCOC(=O)C(C#N)=Cc1cc(-c2ccccc2)n(-c2ccc(S(N)(=O)=O)cc2)n1`, the IC50 is > 100 µM.
